Measurements published in IntAct's records for PubMed 35512704.

B1: RAC-alpha serine/threonine-protein kinase (Homo sapiens), P31749 (parent)
chain: MSDVAIVKEGWLHKRGEYIKTWRPRYFLLKNDGTFIGYKERPQDVDQREAPLNNFSVAQCQLMKTERPRPNTFIIRCLQWTTVIERTFHVETPEEREEWTTAIQTVADGLKKQEEEEMDFRSGSPSDNSGAEEMEVSLAKPKHRVTMNEFEYLKLLGKGTFGKVILVKEKATGRYYAMKILKKEVIVAKDEVAHTLTENRVLQNSRHPFLTALKYSFQTHDRLCFVMEYANGGELFFHLSRERVFSEDRARFYGAEIVSALDYLHSEKNVVYRDLKLENLMLDKDGHIKITDFGLCKEGIKDGATMKTFCGTPEYLAPEVLEDNDYGRAVDWWGLGVVMYEMMCGRLPFYNQDHEKLFELILMEEIRFPRTLGPEAKSLLSGLLKKDPKQRLGGGSEDAKEIMQHRFFAGIVWQHVYEKKLSPPFKPQVTSETDTRYFDEEFTAQMITITPPDQDDSMECVDSERRPHFPQFSYSASGTA
partner: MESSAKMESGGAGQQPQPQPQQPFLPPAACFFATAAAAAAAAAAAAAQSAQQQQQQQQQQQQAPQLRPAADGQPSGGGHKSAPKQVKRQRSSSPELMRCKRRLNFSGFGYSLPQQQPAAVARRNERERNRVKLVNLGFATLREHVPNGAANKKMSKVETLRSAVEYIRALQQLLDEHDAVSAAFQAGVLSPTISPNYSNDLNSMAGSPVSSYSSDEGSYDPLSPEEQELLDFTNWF
B2: RAC-alpha serine/threonine-protein kinase (Homo sapiens), P31749 (parent)
chain: B1 chain
partner: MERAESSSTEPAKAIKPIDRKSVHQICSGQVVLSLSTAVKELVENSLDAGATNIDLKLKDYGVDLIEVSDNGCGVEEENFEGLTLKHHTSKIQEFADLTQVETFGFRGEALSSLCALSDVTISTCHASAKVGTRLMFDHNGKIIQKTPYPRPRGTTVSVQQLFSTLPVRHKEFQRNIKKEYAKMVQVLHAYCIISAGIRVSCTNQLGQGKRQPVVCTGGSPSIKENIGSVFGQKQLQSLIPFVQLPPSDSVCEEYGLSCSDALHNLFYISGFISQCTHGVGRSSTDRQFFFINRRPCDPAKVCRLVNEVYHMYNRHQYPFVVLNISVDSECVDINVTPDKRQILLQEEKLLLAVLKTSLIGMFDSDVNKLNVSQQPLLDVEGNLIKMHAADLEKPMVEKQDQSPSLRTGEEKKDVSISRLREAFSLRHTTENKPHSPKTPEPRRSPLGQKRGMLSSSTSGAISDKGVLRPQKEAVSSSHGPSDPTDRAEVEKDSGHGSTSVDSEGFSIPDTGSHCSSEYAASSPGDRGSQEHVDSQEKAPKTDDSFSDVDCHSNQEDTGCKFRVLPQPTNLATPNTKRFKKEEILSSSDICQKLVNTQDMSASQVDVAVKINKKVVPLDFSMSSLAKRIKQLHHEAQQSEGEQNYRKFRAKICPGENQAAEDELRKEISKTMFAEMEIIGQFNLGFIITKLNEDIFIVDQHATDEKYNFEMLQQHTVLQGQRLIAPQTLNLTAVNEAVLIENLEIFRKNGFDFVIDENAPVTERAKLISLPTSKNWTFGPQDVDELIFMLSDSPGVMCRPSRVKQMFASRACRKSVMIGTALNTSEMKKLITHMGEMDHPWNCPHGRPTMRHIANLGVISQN
B3: RAC-alpha serine/threonine-protein kinase (Homo sapiens), P31749 (parent)
chain: B1 chain
partner: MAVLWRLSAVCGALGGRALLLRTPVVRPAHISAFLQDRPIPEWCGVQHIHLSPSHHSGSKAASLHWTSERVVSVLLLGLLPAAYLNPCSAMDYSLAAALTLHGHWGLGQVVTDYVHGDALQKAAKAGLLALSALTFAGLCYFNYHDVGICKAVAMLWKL
B4: RAC-alpha serine/threonine-protein kinase (Homo sapiens), P31749 (parent)
chain: B1 chain
partner: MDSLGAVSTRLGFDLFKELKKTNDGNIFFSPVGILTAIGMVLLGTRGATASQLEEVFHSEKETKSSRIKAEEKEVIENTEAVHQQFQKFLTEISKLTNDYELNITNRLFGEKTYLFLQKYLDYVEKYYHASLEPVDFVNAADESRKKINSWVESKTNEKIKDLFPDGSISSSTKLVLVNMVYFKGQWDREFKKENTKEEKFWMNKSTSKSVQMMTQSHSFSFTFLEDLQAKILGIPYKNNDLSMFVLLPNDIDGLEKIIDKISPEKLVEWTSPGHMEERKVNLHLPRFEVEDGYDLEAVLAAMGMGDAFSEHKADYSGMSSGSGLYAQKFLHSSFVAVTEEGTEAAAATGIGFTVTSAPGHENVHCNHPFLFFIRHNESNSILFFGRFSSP
B5: RAC-alpha serine/threonine-protein kinase (Homo sapiens), P31749 (parent)
chain: B1 chain
partner: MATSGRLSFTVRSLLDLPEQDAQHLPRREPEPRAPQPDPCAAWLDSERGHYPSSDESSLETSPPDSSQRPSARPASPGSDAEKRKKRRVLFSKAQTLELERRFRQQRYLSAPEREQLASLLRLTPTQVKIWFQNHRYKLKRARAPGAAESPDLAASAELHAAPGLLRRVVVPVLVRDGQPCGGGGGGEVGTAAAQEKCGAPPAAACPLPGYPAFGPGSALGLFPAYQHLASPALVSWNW
B6: RAC-alpha serine/threonine-protein kinase (Homo sapiens), P31749 (parent)
chain: B1 chain
partner: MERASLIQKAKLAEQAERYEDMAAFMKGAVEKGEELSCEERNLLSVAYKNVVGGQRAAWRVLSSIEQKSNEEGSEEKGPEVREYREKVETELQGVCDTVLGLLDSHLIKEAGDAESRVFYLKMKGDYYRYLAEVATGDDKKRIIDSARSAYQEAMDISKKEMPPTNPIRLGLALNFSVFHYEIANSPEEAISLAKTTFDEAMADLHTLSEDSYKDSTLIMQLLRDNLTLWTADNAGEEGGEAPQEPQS
B7: RAC-alpha serine/threonine-protein kinase (Homo sapiens), P31749 (parent)
chain: B1 chain
partner: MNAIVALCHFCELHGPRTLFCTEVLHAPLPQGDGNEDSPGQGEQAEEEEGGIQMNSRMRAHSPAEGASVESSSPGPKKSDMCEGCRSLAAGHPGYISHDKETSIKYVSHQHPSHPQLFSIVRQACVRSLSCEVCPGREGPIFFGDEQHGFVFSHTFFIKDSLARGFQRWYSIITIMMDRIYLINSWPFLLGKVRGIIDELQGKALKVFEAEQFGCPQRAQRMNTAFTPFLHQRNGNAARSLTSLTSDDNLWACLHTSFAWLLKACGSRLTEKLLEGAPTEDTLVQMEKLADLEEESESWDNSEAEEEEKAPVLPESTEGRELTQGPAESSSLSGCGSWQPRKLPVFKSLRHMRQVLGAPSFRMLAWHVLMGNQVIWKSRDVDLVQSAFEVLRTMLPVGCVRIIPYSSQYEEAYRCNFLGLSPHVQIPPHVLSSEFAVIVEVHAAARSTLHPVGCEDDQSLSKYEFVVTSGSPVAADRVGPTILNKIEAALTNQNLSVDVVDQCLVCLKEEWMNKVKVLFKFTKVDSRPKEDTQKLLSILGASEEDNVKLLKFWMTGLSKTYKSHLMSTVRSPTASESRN
B8: RAC-alpha serine/threonine-protein kinase (Homo sapiens), P31749 (parent)
chain: B1 chain
partner: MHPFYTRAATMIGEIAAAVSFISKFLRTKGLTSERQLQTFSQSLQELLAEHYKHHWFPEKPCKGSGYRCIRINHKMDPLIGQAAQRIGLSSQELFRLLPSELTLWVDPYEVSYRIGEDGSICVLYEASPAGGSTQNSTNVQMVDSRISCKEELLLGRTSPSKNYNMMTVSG
B9: RAC-alpha serine/threonine-protein kinase (Homo sapiens), P31749 (parent)
chain: B1 chain
partner: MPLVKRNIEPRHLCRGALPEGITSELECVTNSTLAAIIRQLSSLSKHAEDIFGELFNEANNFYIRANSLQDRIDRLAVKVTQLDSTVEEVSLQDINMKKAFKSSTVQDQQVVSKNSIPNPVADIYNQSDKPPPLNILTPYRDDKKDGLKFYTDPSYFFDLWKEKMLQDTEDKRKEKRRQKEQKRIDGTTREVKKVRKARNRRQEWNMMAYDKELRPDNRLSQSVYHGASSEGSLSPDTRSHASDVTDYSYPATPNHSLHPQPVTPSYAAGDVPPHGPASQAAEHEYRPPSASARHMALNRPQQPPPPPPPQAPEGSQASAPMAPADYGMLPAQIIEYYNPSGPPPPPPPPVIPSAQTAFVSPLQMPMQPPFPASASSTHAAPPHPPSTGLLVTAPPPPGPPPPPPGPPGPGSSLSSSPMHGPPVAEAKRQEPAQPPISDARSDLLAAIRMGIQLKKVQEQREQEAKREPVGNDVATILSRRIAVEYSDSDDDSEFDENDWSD
B10: RAC-alpha serine/threonine-protein kinase (Homo sapiens), P31749 (parent)
chain: B1 chain
partner: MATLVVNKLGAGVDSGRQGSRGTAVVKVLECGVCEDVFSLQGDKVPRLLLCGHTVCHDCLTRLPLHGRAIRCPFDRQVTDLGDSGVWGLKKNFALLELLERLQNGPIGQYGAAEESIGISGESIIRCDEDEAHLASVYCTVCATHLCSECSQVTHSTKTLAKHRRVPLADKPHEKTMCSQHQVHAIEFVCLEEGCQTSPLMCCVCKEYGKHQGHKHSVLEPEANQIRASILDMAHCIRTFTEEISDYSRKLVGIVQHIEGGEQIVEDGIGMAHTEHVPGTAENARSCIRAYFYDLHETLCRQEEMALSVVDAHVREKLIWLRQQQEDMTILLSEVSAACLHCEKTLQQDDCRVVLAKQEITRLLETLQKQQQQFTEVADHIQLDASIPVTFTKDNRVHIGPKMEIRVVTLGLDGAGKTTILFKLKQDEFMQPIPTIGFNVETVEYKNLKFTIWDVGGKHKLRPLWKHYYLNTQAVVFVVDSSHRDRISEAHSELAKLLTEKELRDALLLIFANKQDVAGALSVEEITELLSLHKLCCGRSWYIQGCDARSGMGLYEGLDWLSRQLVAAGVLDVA

Variants of: B1
Details: with ascl1_human ASCL1, P50553

Row | effect of a mutation on the interaction | Variant
1 | causing an interaction | E17K

Variants of: B2
Details: with pms2_human PMS2, P54278

Row | effect of a mutation on the interaction | Variant
2 | with no effect | E17K

Variants of: B3
Details: with dhsd_human SDHD

Row | effect of a mutation on the interaction | Variant
3 | with no effect | E17K

Variants of: B4
Details: with spb13_human SERPINB13, Q9UIV8

Row | effect of a mutation on the interaction | Variant
4 | with no effect | E17K

Variants of: B5
Details: with nkx28_human NKX2-8, O15522

Row | effect of a mutation on the interaction | Variant
5 | with no effect | E17K

Variants of: B6
Details: with 1433s_human SFN

Row | effect of a mutation on the interaction | Variant
6 | disrupting interaction strength | E17K

Variants of: B7
Details: with flcn_human FLCN

Row | effect of a mutation on the interaction | Variant
7 | with no effect | E17K

Variants of: B8
Details: with btg1_human BTG1, P62324

Row | effect of a mutation on the interaction | Variant
8 | causing an interaction | E17K

Variants of: B8
Details: with btg1_human BTG1, P62324
Remark: another data set of the same source

Row | effect of a mutation on the interaction | Variant
9 | increasing interaction strength | E17K

Variants of: B9
Details: with wasf3_human WASF3, Q9UPY6

Row | effect of a mutation on the interaction | Variant
10 | with no effect | E17K

Variants of: B10
Details: with tri23_human TRIM23, P36406

Row | effect of a mutation on the interaction | Variant
11 | with no effect | E17K
